Test: Water solubility of the divalent metal salt powder
Settings: 25° C., dried powder

Substance: Calcium Gluconate [Comparative Example 2, reference compound]
- Solubility (water solubility): 3.0~4.0 g/100 ml
- Solubility (water solubility) (listed as CG): 3.0˜4.0 g/100 ml

From US8298328B2, “Amorphous metal salt for facilitating the handling property of portland cements and dental applications thereof” (Taipei Medical University, priority 2008, dated 2012)
